Measurements reported in PubChem BioAssay.
This is a selection; strong and weak results do not stand in their true shares. The source made the active and inactive calls.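 Rule for the calls, unless noted: active = inhibition above 30%; inactive = the rest.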

The chains behind the UniProt entries cited, without tags or fusion partners. Where a name states a change or a piece, a line headed by the entry shows the natural chain unless it says otherwise.
UniProt Q9UM07, whole entry, looked up: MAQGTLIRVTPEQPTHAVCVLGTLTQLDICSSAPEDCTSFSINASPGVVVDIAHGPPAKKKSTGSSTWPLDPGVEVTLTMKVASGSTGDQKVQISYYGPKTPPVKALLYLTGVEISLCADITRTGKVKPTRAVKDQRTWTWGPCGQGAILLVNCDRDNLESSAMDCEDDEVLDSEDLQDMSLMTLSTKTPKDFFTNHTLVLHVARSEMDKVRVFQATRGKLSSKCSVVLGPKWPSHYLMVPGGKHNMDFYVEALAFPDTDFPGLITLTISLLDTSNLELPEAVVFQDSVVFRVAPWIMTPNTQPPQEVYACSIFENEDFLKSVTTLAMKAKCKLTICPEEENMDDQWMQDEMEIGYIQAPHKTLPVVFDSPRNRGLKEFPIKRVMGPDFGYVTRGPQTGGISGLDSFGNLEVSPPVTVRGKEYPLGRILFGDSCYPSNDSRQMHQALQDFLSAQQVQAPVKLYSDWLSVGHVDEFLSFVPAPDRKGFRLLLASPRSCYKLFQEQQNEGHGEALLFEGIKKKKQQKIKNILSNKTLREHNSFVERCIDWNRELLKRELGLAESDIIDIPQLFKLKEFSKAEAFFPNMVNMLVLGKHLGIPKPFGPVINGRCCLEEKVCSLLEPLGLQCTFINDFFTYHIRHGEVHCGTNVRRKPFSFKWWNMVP
UniProt Q9NR96: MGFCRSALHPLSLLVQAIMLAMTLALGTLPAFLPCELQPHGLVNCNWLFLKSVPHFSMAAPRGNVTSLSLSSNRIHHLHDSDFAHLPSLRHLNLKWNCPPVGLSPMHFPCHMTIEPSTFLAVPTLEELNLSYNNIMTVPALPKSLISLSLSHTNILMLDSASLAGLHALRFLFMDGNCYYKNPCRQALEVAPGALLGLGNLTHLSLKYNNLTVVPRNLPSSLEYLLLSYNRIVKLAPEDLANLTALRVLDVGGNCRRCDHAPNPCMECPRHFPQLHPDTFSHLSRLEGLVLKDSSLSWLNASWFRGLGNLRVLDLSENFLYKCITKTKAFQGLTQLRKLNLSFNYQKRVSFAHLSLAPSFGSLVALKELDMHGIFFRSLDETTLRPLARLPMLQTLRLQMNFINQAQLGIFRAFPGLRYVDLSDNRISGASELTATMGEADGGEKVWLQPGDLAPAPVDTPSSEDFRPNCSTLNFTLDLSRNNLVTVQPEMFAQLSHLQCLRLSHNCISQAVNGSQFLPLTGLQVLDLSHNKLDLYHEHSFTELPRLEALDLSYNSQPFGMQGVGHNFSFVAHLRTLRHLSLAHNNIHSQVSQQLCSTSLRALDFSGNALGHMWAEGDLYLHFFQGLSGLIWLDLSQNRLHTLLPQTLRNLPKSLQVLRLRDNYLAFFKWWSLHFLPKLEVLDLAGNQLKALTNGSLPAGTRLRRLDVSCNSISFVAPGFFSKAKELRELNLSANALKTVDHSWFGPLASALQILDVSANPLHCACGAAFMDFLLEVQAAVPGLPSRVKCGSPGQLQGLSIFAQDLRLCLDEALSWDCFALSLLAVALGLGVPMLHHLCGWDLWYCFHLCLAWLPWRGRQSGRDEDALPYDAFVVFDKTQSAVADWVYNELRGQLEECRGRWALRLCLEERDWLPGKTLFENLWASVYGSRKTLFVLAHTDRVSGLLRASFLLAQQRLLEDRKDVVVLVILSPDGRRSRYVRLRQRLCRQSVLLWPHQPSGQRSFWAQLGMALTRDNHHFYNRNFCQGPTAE
UniProt Q15788: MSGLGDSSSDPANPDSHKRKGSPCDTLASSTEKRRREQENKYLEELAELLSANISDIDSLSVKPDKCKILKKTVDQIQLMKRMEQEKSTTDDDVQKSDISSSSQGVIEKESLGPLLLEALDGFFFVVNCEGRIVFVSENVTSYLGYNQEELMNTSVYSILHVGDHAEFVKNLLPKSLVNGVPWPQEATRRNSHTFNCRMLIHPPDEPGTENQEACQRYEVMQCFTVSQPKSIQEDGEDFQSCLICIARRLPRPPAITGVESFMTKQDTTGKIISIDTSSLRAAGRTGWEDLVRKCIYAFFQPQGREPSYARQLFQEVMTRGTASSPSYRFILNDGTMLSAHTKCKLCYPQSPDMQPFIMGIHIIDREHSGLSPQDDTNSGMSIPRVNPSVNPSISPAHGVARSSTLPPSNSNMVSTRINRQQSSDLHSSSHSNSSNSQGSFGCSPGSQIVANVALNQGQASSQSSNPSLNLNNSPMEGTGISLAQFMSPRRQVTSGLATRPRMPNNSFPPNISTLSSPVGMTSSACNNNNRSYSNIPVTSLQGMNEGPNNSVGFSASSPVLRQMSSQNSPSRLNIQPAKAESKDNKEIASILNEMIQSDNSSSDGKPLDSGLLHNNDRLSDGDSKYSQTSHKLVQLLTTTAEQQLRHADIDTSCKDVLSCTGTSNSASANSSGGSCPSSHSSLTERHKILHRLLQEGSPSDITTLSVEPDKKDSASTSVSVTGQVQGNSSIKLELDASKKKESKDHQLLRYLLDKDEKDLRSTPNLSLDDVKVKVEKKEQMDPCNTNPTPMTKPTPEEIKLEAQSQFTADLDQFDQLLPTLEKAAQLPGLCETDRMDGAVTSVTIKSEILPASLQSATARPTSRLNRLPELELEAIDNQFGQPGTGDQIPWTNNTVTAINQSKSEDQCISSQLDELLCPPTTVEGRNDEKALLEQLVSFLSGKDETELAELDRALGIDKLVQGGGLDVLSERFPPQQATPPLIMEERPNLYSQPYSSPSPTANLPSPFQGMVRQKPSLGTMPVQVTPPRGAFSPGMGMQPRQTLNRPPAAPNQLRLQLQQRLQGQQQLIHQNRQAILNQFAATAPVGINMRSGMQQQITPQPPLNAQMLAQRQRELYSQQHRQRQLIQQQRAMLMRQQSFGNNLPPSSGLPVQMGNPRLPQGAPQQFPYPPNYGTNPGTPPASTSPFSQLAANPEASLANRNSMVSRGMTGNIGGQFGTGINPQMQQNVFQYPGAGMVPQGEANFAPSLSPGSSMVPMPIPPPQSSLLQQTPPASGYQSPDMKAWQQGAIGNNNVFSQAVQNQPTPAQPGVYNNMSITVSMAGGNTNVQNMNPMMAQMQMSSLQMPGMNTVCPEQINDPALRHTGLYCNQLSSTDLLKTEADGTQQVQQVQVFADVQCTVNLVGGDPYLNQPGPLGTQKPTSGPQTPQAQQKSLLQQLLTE
UniProt P24468: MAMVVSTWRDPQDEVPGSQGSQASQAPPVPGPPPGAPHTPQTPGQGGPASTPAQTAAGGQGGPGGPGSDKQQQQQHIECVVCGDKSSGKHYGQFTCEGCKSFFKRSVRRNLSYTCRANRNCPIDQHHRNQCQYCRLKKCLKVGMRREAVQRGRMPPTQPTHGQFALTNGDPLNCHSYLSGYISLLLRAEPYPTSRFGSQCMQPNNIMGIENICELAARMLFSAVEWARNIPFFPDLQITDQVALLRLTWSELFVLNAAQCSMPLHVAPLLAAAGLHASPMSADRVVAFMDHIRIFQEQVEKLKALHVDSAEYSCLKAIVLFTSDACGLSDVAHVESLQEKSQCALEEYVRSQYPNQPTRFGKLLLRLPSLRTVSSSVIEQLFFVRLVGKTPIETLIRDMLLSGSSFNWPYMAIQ

Columns and labels:
[1] = system: TLR4-MyD88 interaction (human), BLA complementation; experiment: disruptors of TLR4 binding to MyD88 – cell-based, HeLa CL3-4, BLA complementation, FRET ratio, confirmation (AID 941;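 active = mean inhibition across three repeat runs above about 25% carried over from the earlier screen, limit read from the data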;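 note: plate controls were DMSO only for no effect and clavulanic acid blocking BLA at full dose for full effect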); conditions: CCF4 FRET ratio, at 8.4 µM, active compounds read high
[2] = BLA reporter interference in HeLa cells – cell-based, full-length BLA, CCF4 FRET ratio, artefact control for TLR4-MyD88 binding inhibitor project, confirmation (AID 1237;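 active = mean inhibition over three repeats above about 26% taken from the earlier screen, limit read from the data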;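 note: HeLa cells stably expressing beta-lactamase reporter as counterscreen for TLR4-MyD88 inhibitors; 0% = DMSO and 100% = clavulanic acid full inhibition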); conditions: at 8.4 µM, active compounds read high
[3] = biological target: Protein-arginine deiminase type-4 (Homo sapiens) (UniProt Q9UM07); experiment: blockers of protein arginine deiminase 4 – biochemical, fluorescence polarization, primary screen (AID 463073); conditions: recombinant PAD4, RFA probe fluorescence polarization; at 5 µM; active compounds read high;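 note: 0% = PAD4 with DMSO and 100% = wells lacking PAD4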
Outline: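 Material: recombinant human PAD4 enzyme / Input: PAD4 at 2 µM in dispensed buffer, before additions / Medium: HEPES buffer pH 7.6 with 10 mM CaCl2 and TCEP / Incubation: 30-min PAD4–compound preincubation (25 °C), then 5-h probe labeling (37 °C) / Detection: fluorescence polarization, 598 nm emission after 525 nm excitation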

[4] = biological target: Toll-like receptor 9 (Homo sapiens) (UniProt Q9NR96); experiment: disruptors of TLR9 binding to MyD88 – cell-based, CHO, BLA complementation, fluorescence, triplicate, confirmation (AID 540250;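 active = mean inhibition across three repeats above about 21% taken from the earlier screen, limit read from the data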;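 note: blue over green emission ratio reports constitutive TLR9 MyD88 association via BLA complementation; 0% = DMSO vehicle wells and 100% = clavulanate BLA inhibitor wells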); conditions: CCF4 FRET ratio, at 4.98 µM, active compounds read high
[5] = BLA reporter readout interference – cell-based, fluorescence, artefact control for TLR9-MyD88 binding inhibitor project (AID 540251;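 active = mean inhibition above a 50% cutoff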;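 note: counterscreen of TLR9-MyD88 hits on CMV-driven BLA in CHO-K1 cells; 0% = DMSO alone and 100% = clavulanate blocking BLA; higher means less blue over green ratio so more BLA blockade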); conditions: CHO-BLA cells, CCF4 FRET ratio, at 4.98 µM, active compounds read high
[6] = CHO cell viability loss – luminescence, single concentration, cytotoxicity control for TLR9-MyD88 binding inhibitor project (AID 588336; in the data active = inhibition above about 11%); conditions: TLR9-MyD88 CHO cells cytotoxicity, at 4.98 µM, active compounds read high
[7] = biological target: Nuclear receptor coactivator 1 (Homo sapiens) (UniProt Q15788); experiment: NCOA1 GAL4-fusion reporter inhibition – cell-based, luminescence, quadruplicate, confirmation (AID 588820;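 active = mean inhibition above 46.68%, the untreated control wells mean plus 3 SD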;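 note: 0% = DMSO wells and 100% = gossypol 36 µM treated wells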); conditions: HEK293 GAL4-SRC1 luciferase reporter, at 3.6 µM, active compounds read high
[8] = biological target: COUP transcription factor 2 (Homo sapiens) (UniProt P24468); experiment: retest of COUP-TFII reporter suppressors – cell-based, luciferase reporter, HEK293, triplicate, confirmation (AID 687008;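 active = mean inhibition over three repeats above a set limit taken from the earlier primary screen, cut at about 38% in these data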;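 note: 100% = cells given the luciferase reporter alone without the COUP-TF2 vector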); conditions: HEK293 NGFI-A luciferase reporter, luminescence; at 8.5 µM; active compounds read high

Cc1c2non([O-])c-2c(C)[n+](=O)[n+]1[O-]
inhibition [1]: inactive: 14.5%
inhibition [2]: inactive: 16.7%

CN(C(=O)Cc1ccc(Cl)c(Cl)c1)[C@@H]1CCCC[C@H]1N1CCCC1
inhibition [3]: inactive: 0.13%

CN(C)C(=O)c1cc([N+](=O)[O-])cc2c1-c1c(cc([N+](=O)[O-])cc1[N+](=O)[O-])C2=O
inhibition [4]: inactive: 16.5%
inhibition [5]: inactive: 15.8%
inhibition [6]: active: 86.4%

CC(C)c1ccc(OP(=O)(Nc2ccccn2)Oc2ccccc2F)cc1 (stereo not drawn)
inhibition [7]: inactive: 0.81%

C[N+]1=C2C=CC=CC=C2SC12C([N+](=O)[O-])=CC([N+](=O)[O-])=C[C-]2[N+](=O)[O-] (stereo not drawn)
inhibition [8]: inactive: 0.21%
